This note sets out measurements from patent US10202345B2, “Substituted azaspiro(4.5)decane derivatives” (priority 2014, dated 2019).

Protein sequences, listed by entry. Tags and fused reporters are not part of them.
UniProt P35372, whole entry: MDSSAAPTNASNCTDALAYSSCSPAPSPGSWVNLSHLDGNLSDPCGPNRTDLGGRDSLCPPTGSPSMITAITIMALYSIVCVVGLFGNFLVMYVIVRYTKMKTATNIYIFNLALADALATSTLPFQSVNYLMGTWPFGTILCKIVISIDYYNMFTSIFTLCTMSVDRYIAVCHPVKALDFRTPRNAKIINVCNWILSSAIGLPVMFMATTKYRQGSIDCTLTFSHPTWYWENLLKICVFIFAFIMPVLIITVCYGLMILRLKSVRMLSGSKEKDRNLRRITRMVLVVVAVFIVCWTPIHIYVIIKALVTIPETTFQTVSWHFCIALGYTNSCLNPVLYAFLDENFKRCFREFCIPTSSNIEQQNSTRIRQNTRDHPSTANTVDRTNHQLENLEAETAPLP
UniProt P41146, whole entry: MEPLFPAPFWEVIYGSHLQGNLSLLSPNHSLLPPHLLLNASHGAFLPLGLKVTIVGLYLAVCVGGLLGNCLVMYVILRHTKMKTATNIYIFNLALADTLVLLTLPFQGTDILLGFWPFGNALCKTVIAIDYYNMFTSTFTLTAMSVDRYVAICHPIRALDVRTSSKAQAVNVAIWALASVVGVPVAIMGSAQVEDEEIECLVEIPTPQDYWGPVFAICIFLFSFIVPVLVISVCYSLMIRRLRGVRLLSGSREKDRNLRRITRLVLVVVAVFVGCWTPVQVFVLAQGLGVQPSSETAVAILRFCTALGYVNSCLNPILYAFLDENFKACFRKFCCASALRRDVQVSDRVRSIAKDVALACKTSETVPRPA

The target in experiment [1] is human μ opiate receptor (Homo sapiens, UniProt P35372). Kind of experiment: μ opiate receptor binding assay with [3H]-naloxone (WGA-SPA beads). The conditions noted are these: for Ki: read-out: Ki (μ) mean [μm], mean; for % inhibition (μ) [1 μM]: test concentration 1 μM.
The target of experiment [2] is ORL1 receptor (Homo sapiens, UniProt P41146). The experiment in a line: ORL1 receptor binding assay with 3H-nociceptin/orphanin FQ (WGA-SPA beads). The conditions noted are these: for Ki: read-out: Ki (ORL1) mean, mean; for % inhibition (ORL1) [1 μM]: test concentration 1 μM.
Experiment [3] deals with rats. Kind of experiment: Analgesia in the tail flick (focal ray) test in rats, intravenous administration.

In the case of `CN(C)C1(c2cccs2)CCC2(CCN(CCC3CCC3)C2)CC1` (stereo not shown), in experiment [1], the inhibition constant Ki was determined as 0.6 nM and the “% inhibition (μ) [1 μM]” value is listed as 101.5%. Also, in experiment [2], the Ki turned out to be 0.52 nM and the “% inhibition (ORL1) [1 μM]” value amounted to 98%. Also, the “Tail flick rat, i.v. ED50 rat [μg/kg]” value in experiment [3] stood at 52.8 µg/kg.
On to `COC(C)(C)CCC(=O)N1CCC2(CCC(c3ccccc3)(N(C)C)CC2)C1` (stereo not shown), for which, in experiment [1], the Ki amounted to 0.4 nM and the “% inhibition (μ) [1 μM]” value was determined as 99.5%. In addition, in experiment [2], the inhibitory constant (Ki) was 0.56 nM and the “% inhibition (ORL1) [1 μM]” value is 97.5%. The “Tail flick rat, i.v. ED50 rat [μg/kg]” value in experiment [3] turned out to be 8.03 µg/kg.

What is called Ki is the dissociation constant of the complex between target and ligand, obtained from inhibition or displacement.
